Data: US10836796B2, “Derivatives of amanita toxins and their conjugation to a cell binding molecule” (Hangzhou DAC Biotech Co., Ltd., priority 2016, dated 2020)

Tested on: human gastric carcinoma N-87 cell line tumor xenograft
Assay: Antitumor activity in vivo, N-87 tumor xenograft model
Design: species or system BALB/c Nude mice
Settings: 6 mg/Kg i.v., one injection
Protocol: The first group of mice served as the control group and was treated with the phosphate-buffered saline vehicle. […] The weight of the animals was also measured at the same time. A mouse was sacrificed when any one of the following criteria was met: (1) loss of body weight of more than 20% from pretreatment weight, (2) tumor volume larger than 1500 mm^3, (3) too sick to reach food and water, or (4) skin necrosis. A mouse was considered to be tumor-free if no tumor was palpable.

T-DM1: Trastuzumab-DM1, antibody conjugated with maytansine derivative DM1; comparator conjugate [reference compound]
duration of tumor growth inhibition: 37 days | elimination / eradication of the tumors: not able to eliminate the tumors completely
